Source: PubChem BioAssay (Broad Institute)
Rows were chosen to be rich in hits. Some 2.2% of all compounds tested hit in one or more screens of this group.
ERp5 block: inhibitors of ERp5-driven insulin aggregation, primary screen, biochemical, turbidity, absorbance 650 nm, single point; Protein disulfide-isomerase A6 (Homo sapiens), Q15084; 90 min; inhibition, % at 9.99 µM; 350,000 compounds, 0.05% hits; AID 651711, 2012;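 active = mean replicate inhibition above about 25%, with every replicate also reaching it, limit read from the data, passing the limit was not always enough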
FGF22 binding: binders of human FGF22 protein, primary screen, FGF22 synaptogenesis inhibitor project, biophysical, thermal shift, single point. Fibroblast growth factor 22 (Homo sapiens), Q9HCT0. recombinant FGF22 thermal shift, SYPRO orange fluorescence; percent of sucrose octasulfate shift, DMSO zero. activity (Tm shift, normalised), % at 9.99 µM. 340,000 compounds, 1.5% hits. AID 651658, 2012;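 active = mean Tm shift, scaled 0 neutral to 100 positive control, at about 1.3% or above, every replicate too, limit read from the data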
Yeast UUG start: alters start codon recognition fidelity in yeast; AID 602363; activity score, % at 18.7 µM; 350,000 tested, 0.13% active; S. cerevisiae UUG-firefly luciferase reporter, luminescence/redox ratio;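 active means replicate mean at a twofold rise or more, about +100% in these data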;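 further: firefly luciferase made from a UUG start codon reports start codon fidelity; reporter light over untreated wells divided by growth signal over untreated wells; some hits fall short of that in this replicate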
S100A4 inh HTS: inhibitors of S100A4-myosin IIA peptide binding, primary screen, biochemical, fluorescence polarization, TAMRA-MyoIIA peptide; AID 652163, 2013; 360,000 compounds, 0.14% hits; Protein S100-A4 (Homo sapiens), P26447; inhibition, % at 10.7 µM;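 active = mean inhibition of at least 70% across replicates, with every replicate also reaching that level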
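System – human S100A4 monomer protein, biochemical binding assay · Buffer or medium – Calcium-containing HEPES buffer, pH 7.2 · Timing – 5 min between mix addition and reading · Also added – TAMRA-labelled myosin IIA heavy-chain peptide probe, 5 nM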
SIRT5 block: SIRT5 desuccinylase inhibitors, primary screen, biochemical, fluorescence imaging, single point, set 5 | NAD-dependent protein deacylase sirtuin-5, mitochondrial (Homo sapiens), Q9NXA8 | Purified SirT5, succinyl-peptide AMC, trypsin-coupled fluorescence | inhibition, % at 15 µM | 330,000 compounds, 1.1% hits | AID 652115, 2013; in the data active = inhibition above about 15%
PDI turbidity: inhibitors of human PDI, primary screen, biochemical, turbidity, single point, plate reader. inhibition, % at 10 µM. 350,000 compounds, 0.052% hits. PDI insulin aggregation turbidity, A650, 90 min. AID 588391, 2011;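 active = mean inhibition across replicates of 30% or more, whatever share of single replicates reach that level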
* hit, by the source's call; x = not tested or not shown; + = active, no number.

SMILES	ERp5 block	FGF22 binding	Yeast UUG start	S100A4 inh HTS	SIRT5 block	PDI turbidity
C[C@H](CO)N1C[C@H](C)[C@H](CN(C)C(=O)Nc2ccc(C(F)(F)F)cc2)OCCCC[C@H](C)Oc2ccc(NC(=O)Cc3ccccc3)cc2C1=O	x	-0.2	-16.2	x	x	x
COc1ccccc1CC(=O)c1ccccc1OC	3.8	43.5*	-0.3	-5.3	x	-0.2
COc1ccccc1C(=O)NNC(=O)c1cccc(F)c1	x	x	-58.8	x	x	-5.4
COc1ccccc1C(=O)NNC(=O)c1ccccc1F	0.9	43.7*	-33.1	-11.7	-1.3	19.9
COc1ccccc1CC(=O)NC(=O)c1ccccc1O	2.9	0.1	1.8	0.4	-2.2	-0.9
CCNC(=O)C[C@H]1CC[C@@H]2[C@@H](COc3ccc(NC(=O)Nc4cccc(F)c4)cc3C(=O)N2C)O1	-4.1	0.1	7.1	-68.8	-6.6	x
COc1cc(NC(=O)Cc2c(C(=O)O)n(C)c3ccccc23)cc(OC)c1OC	-1.1	42.9*	-13.1	2.3	-0.4	-2.3
CCCN(C(=O)Cc1c(C(=O)O)n(C)c2ccccc12)c1cccc(C)c1	2.4	0.2	-7.1	-1.3	-3.7	1.9
CCn1c(=O)cc(OCC(=O)Nc2ccc(OC)c(OC)c2)c2ccccc21	0.4	43.4*	x	-5.2	-3.4	-2.1
CCn1c(=O)cc(OCC(=O)Nc2ccc3c(c2)OCCO3)c2ccccc21	x	x	-15.2	x	x	-3.2
COc1ccc(C)cc1NC(=O)Cc1c(C(=O)O)n(C)c2ccccc12	0.2	1.0	-0.2	1.3	0.1	1.2
COc1ccc(NC(=O)Cc2c(C(=O)O)n(C)c3ccccc23)cc1OC	0.8	43.0*	x	-1.9	-0.5	-5.3
COc1ccc(C)cc1N(C)C(=O)Cc1c(C(=O)O)n(C)c2ccccc12	5.1	-0.2	-3.9	-5.4	28.6*	-41.0
O=C(C1CCC1)N1CC2(C1)[C@H](c1ccccc1)[C@@H](CO)N2Cc1cncnc1	-3.4	x	x	-8.1	-11.4	x
CO[C@@H]1CN(C)C(=O)c2ccc(NC(=O)Nc3ccccc3)cc2OC[C@@H](C)N(CC2CC2)C[C@@H]1C	-0.9	0.0	-0.5	5.6	0.9	x
O=C(NCCS(=O)(=O)NC1CCCCC1)c1ccccc1	3.9	x	-6.2	-1.9	-3.6	8.9
O=C(NCCS(=O)(=O)NC1CCCC1)c1ccccc1	3.1	0.4	-22.2	-1.7	16.7*	-3.3
CCc1nc2ccccc2c(C(=O)OCC(=O)NCCCN2CCCC2=O)c1C	-12.9	x	-10.0	-1.1	18.7*	-1.1
Cc1c(OCC(=O)NCCCN2CCCC2=O)ccc2c3c(c(=O)oc12)CCC3	5.8	-0.1	0.2	+	-0.9	-2.3
Cc1c(OCC(=O)NCCCN2CCCC2=O)ccc2c3c(c(=O)oc12)CCCC3	-0.1	0.1	5.2	-3.7	-12.1	-0.6
Cc1cc(SCC(=O)NCCCN2CCCC2=O)nc2ccccc12	-1.5	0.3	-17.5	-7.9	-1.9	-3.7
Cc1cc2cc(CNC(=O)Nc3ccc(Cl)c(Cl)c3)ccc2n1C	-1.3	-0.1	14.3	79.8*	-0.3	x
CCCN1C[C@@H](C)[C@H](OC)CN(C)C(=O)c2ccc(NC(=O)c3cnccn3)cc2OC[C@@H]1C	14.7	-0.1	1.7	-10.0	-0.8	x
CC(NC(=O)C(c1ccccc1)c1ccccc1)C(=O)O (stereo not drawn)	4.5	0.0	3.9	-0.6	-0.9	-2.9
CC(NC(=O)C(c1ccccc1)c1ccccc1)C(=O)N1CCCCC1 (stereo not drawn)	2.0	43.1*	x	-4.1	x	13.8

Continuation.
SMILES	ERp5 block	FGF22 binding	Yeast UUG start	S100A4 inh HTS	SIRT5 block	PDI turbidity
CNC[C@H]1OCCCC[C@@H](C)Oc2ccc(NS(=O)(=O)c3ccc(Cl)cc3)cc2C(=O)N([C@@H](C)CO)C[C@H]1C	8.0	0.1	5.0	7.3	-0.2	x
CC(C)NC(=O)N1CC2(C1)[C@H](c1ccccc1)[C@H](CO)N2C(=O)C1CCC1	10.1	x	x	5.0	-1.4	x
CN(CC(=O)NC1CCN(Cc2ccccc2)CC1)S(=O)(=O)c1ccc2c(c1)c(=O)n(C)c(=O)n2C	-0.2	43.2*	x	2.0	-6.3	7.0
CSCCC(NS(=O)(=O)c1ccc2c(c1)c(=O)n(C)c(=O)n2C)C(=O)NC1CCN(Cc2ccccc2)CC1 (stereo not drawn)	0.5	0.7	-30.1	2.5	1.6	-7.0
C[C@@H]1CN([C@H](C)CO)C(=O)c2cc(NC(=O)Cc3ccccc3)ccc2O[C@@H](C)CCCCO[C@H]1CN(C)S(=O)(=O)c1ccc(Cl)cc1	-3.6	-0.3	-6.9	4.8	8.5	x
CCCNC(=O)[C@H]1[C@H](CO)[C@H]2Cn3c(ccc(-c4ccc(OC)cc4)c3=O)[C@H]2N1CCC	-3.9	-0.1	24.8	16.7	16.5*	x
CCCNC(=O)[C@@H]1[C@@H](CO)[C@@H]2Cn3c(ccc(-c4ccc(OC)cc4)c3=O)[C@@H]2N1CCC	-1.8	0.0	1.1	2.0	-14.1	x
CCCN1[C@@H]2c3ccc(-c4cccc(OC)c4)c(=O)n3C[C@@H]2[C@@H](CO)[C@@H]1C(=O)OC	0.1	-0.1	x	-1.2	16.4*	x
COc1cccc(S(=O)(=O)N[C@@H]2CC[C@@H](CCNC(=O)Cc3ccncc3)O[C@@H]2CO)c1	-4.5	-0.2	-3.6	20.2	10.3	x
O=C(Nc1ccccc1C(=O)N/N=C/c1ccncc1)c1ccccc1	-4.1	44.3*	-39.7	-4.5	3.1	7.5
COc1ccc(-c2[nH]ncc2[C@@H]2C[C@H]3CN(Cc4ccccc4C)C(=O)[C@]34CCCN24)cc1	2.4	43.5*	x	-5.1	1.7	9.8
C[C@@H]1CCCCO[C@H](CN(C)C(=O)Nc2ccc3c(c2)OCO3)[C@@H](C)CN([C@@H](C)CO)C(=O)c2cc(NC(=O)c3ccncc3)ccc2O1	-7.3	-0.3	3.7	-13.9	-2.7	x
COc1ccc(NC(=O)N(C)C[C@@H]2Oc3cc(-c4ccc(C)cc4)ccc3S(=O)(=O)N([C@@H](C)CO)C[C@H]2C)cc1	-1.6	-0.3	-7.9	-0.9	8.6	x
COCC#Cc1ccc2c(c1)O[C@@H](CN(C)C(=O)Nc1ccc(OC)cc1)[C@H](C)CN([C@@H](C)CO)S2(=O)=O	5.7	-0.1	-4.2	-7.1	4.0	x
COc1ccc(NC(=O)N(C)C[C@H]2Oc3cc(C#CCC(C)C)ccc3S(=O)(=O)N([C@@H](C)CO)C[C@H]2C)cc1	2.9	0.6	x	-3.0	25.8*	x

Two successive compounds out of the list so far, quoted:
SMILES	ERp5 block	FGF22 binding	Yeast UUG start	S100A4 inh HTS	SIRT5 block	PDI turbidity
C[C@H](CO)N1C[C@H](C)[C@H](CN(C)C(=O)Nc2ccc(C(F)(F)F)cc2)OCCCC[C@H](C)Oc2ccc(NC(=O)Cc3ccccc3)cc2C1=O	x	-0.2	-16.2	x	x	x
COc1ccccc1CC(=O)c1ccccc1OC	3.8	43.5*	-0.3	-5.3	x	-0.2

Quoted from the listing.
`COc1ccccc1CC(=O)NC(=O)c1ccccc1O` – FGF22 binding: 0.1
`C[C@@H]1CCCCO[C@H](CN(C)C(=O)Nc2ccc3c(c2)OCO3)[C@@H](C)CN([C@@H](C)CO)C(=O)c2cc(NC(=O)c3ccncc3)ccc2O1` – FGF22 binding: -0.3
`COc1ccccc1C(=O)NNC(=O)c1ccccc1F` – Yeast UUG start: -33.1
